ChEMBL document CHEMBL5038571, “Design and Synthesis of EZH2-Based PROTACs to Degrade the PRC2 Complex for Targeting the Noncatalytic Activity of EZH2” (J Med Chem, 2021)

Species: Homo sapiens
Assay: Selectivity index, ratio of IC50 for inhibition of recombinant full length human N-terminal FLAG-tagged EZH1 in PRC2 complex expressed in baculovirus system to IC50 for inhibition of N-terminal His-tagged EZH2 in human PCR2 complex (2 to end residues) expressed in Sf9 cells

CCN(c1cc(-c2ccc(CN3CCN(CCCCCCCOc4cccc5c4C(=O)N(C4CCC(=O)NC4=O)C5=O)CC3)cc2)cc(C(=O)NCc2c(C)cc(C)[nH]c2=O)c1C)C1CCOCC1 (stereo unspecified)
Ratio IC50: > 66
